Literature values in US6576662B2, “Compounds having anticancer activity : process for their preparation and pharmaceutical compositions containing them” (Dr. Reddy's Laboratories Limited, priority 2000, dated 2003).

System: H9 cell
Conditions: cited from earlier work

Substance: dehydroandrographolide succinic acid monoester [DASM]
- concentrations nontoxic to the H9 cell: 50 to 200 µg/mL
